Assay results reported in patent publication US5922728A, “Phenylsubstituted 4-azasteroid fluoroderivatives” (Pharmacia & Upjohn, S.p.A., priority 1995, dated 1999).

The chains behind the UniProt entries cited, without tags or fusion partners. Where a name states a change or a piece, a line headed by the entry shows the natural chain unless it says otherwise.
UniProt P31213: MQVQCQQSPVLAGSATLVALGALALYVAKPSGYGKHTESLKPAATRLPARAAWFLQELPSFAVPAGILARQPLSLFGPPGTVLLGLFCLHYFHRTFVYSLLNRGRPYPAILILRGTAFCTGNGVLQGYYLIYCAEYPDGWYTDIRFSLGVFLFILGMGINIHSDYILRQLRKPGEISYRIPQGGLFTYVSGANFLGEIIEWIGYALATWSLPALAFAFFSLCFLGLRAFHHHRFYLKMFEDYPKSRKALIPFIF

Target: human 5α-reductase (Homo sapiens, UniProt P31213)
Test: biochemical

Work on `C[C@]12C=CC(=O)N[C@@H]1CC[C@@H]1[C@@H]2CC[C@]2(C)[C@@H](C(=O)NC(c3ccccc3)(C(F)(F)F)C(F)(F)F)CC[C@@H]12` [compound 1, N-(1,1,1,3,3,3-hexafluorophenylpropyl)-3-oxo-4-aza-5α-androst-1-ene-17β-carboxamide] yielded an IC50 of 28 nM.
